According to article PMC12299470, “Selection of an Optimal Metabolic Model for Accurately Predicting the Hepatic Clearance of Albumin-Binding-Sensitive Drugs” (Pharmaceuticals, 2025):

Tests used:
[1] = parameters: method as in EMBL-EBI database; conditions: acidic or neutral; ref EMBL-EBI database; cited from earlier work
[2] = tested on: isolated perfused rat liver; conditions: male, Sprague-Dawley

SMILES: CN1C(=O)CN=C(c2ccccc2)c2cc(Cl)ccc21 [Diazepam]
- Class [1]: N

SMILES: O=C(O)Cc1ccccc1Nc1c(Cl)cccc1Cl [Diclofenac]
- CLint, MWSM [2]: 13.50
